## OPERA 2.9 data: melting point values

Data: OPERA 2.9 data sets, kmansouri/OPERA on GitHub.

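OPERA's authors assembled the values from existing databases and did not measure them anew. One number stands for a compound and property, with no spread given. Conditions of the individual experiments are not part of the data. The measured form (salt, isomer or mixture) is not always the one drawn. Unmarked limits or estimates from the upstream databases cannot be ruled out.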

The melting point is given in degrees Celsius.
Cells with "–" have no entry in this list.
"via" names the databases from which the curators took the value.

| SMILES | name | MP (°C) | via |
|---|---|---|---|
| O=Cc1ccc(-c2ccc([N+](=O)[O-])cc2Br)o1 | 5-(2-Bromo-4-nitrophenyl)furan-2-carbaldehyde | 134 | OCHEM |
| COc1c(F)c(F)cc(C(=O)O)c1F | 2,4,5-Trifluoro-3-methoxybenzoic acid | 114.5 | OCHEM |
| O=C(O)C=Cc1ccccn1 | 3-(2-Pyridinyl)-2-propenoic acid | 202 | OCHEM |
| CC1(CCc2ccc(O)cc2)NC(=O)NC1=O (stereo unspecified) | 5-[2-(4-hydroxyphenyl)ethyl]-5-methylimidazolidine-2,4-dione | 193 | OCHEM |
| O/N=C/c1ccc(OCc2ccccc2)cc1 | 4-Benzyloxy-benzaldehyde oxime | 110 | OCHEM |
| CSc1ccc(C(=O)C(C)C)cc1 | 2-Methyl-1-[4-(methylthio)phenyl]-1-propanone | 42.5 | eChemPortal |
| CC(C)(O)C#Cc1ccccn1 | 2-Methyl-4-(pyridin-2-yl)but-3-yn-2-ol | 82.5 | OCHEM |
| O=C(O)C1CC(=O)N(c2cccc(Cl)c2)C1 (stereo unspecified) | 1-(3-chlorophenyl)-5-oxopyrrolidine-3-carboxylic acid | 134 | OCHEM |
| O=C(O)c1ccccc1Oc1cccc(C(F)(F)F)c1 | 2-[3-(Trifluoromethyl)phenoxy]benzoic acid | 116 | OCHEM |
| CC(C)CNC(=O)CC#N | 2-cyano-N-isobutylacetamide | 58 | OCHEM |
| O=C(O)c1cc(-c2ccncc2)nc2ccccc12 | Cinchoninic acid, 2-(4-pyridyl)- | 309 | OCHEM |
| O=C(O)c1ccc(CSc2ccccc2)cc1 | 4-(Phenylsulfanylmethyl)benzoic Acid | 180 | OCHEM |
| NC1=NCN([C@@H]2O[C@H](CO)[C@@H](O)[C@H]2O)C(=O)N1 | 5,6-Dihydro-5-azacytidine | 183.6 | PubChem |
| Cc1nc2scc(C)n2c1C=O | 3,6-Dimethylimidazo[2,1-b][1,3]thiazole-5-carbaldehyde | 154 | OCHEM |
| NC(=O)NC(=O)C(Cl)c1ccccc1 (stereo unspecified) | Chlorphenacemide | 171 | OCHEM |
| O=C(O)c1ccc2c(c1)C(=O)N(Cc1ccco1)C2=O | – | 174 | OCHEM |
| Cc1cc(N)n(CCC#N)n1 | 3-(5-amino-3-methyl-1H-pyrazol-1-yl)propanenitrile | 105 | OCHEM |
| CC(C)(C)N(NC(=O)c1ccccc1)C(=O)c1c(F)cccc1F | – | 194 | OCHEM |
| Cc1cc(N)ccc1NS(C)(=O)=O | N-(4-amino-2-methylphenyl)methanesulfonamide | 142 | OCHEM |
| O=C(O)CCNS(=O)(=O)c1ccccc1 | 3-[(phenylsulfonyl)amino]propanoic acid | 112 | OCHEM |
| O=c1[nH]nc(Br)c(=O)[nH]1 | – | 189 | OCHEM |
| Nc1ccc(S(=O)(=O)Nc2ccccc2Cl)cc1 | 4-Amino-N-(2-chlorophenyl)benzene-1-sulfonamide | 160 | OCHEM |
| COc1ccc(Cl)cc1NC(=O)CCl | 2-chloro-N-(5-chloro-2-methoxyphenyl)acetamide | 102 | OCHEM |
| CCn1cc[nH]c1=S | 1-Ethyl-1,3-dihydro-2H-imidazole-2-thione | 79 | OCHEM |
| CCOC(=O)C(=O)c1c(C)[nH]c2ccccc12 | Ethyl (2-methyl-1H-indol-3-yl)(oxo)acetate | 128 | OCHEM |
| CN1CC(=O)NC(=O)C1 | 4-Methylpiperazine-2,6-dione | 100 | OCHEM |
| O=C(O)CCC(=O)c1ccc2c(c1)CCCC2 | 5,6,7,8-Tetrahydro-gamma-oxonaphthalene-2-butyric acid | 123 | OCHEM |
| CC(=O)c1ccc(NS(=O)(=O)c2ccc(C)cc2)cc1 | N-(4-Acetylphenyl)-4-methylbenzenesulfonamide | 171 | OCHEM |
| O=C(O)C1Cc2cc(Cl)ccc2O1 (stereo unspecified) | 5-Chloro-2,3-dihydro-1-benzofuran-2-carboxylic acid | 116 | OCHEM |
| Cc1nn(C2CCS(=O)(=O)C2)c(C)c1C=O (stereo unspecified) | – | 123 | OCHEM |
| Cc1nn2cn[nH]c2nc1=O | 6-Methyl[1,2,4]triazolo[4,3-b][1,2,4]triazin-7(1H)-one | 196 | OCHEM |
| NNc1ncccc1C(F)(F)F | 2-Hydrazinyl-3-(trifluoromethyl)pyridine | 72 | OCHEM |
| COCc1ccc(C(=O)O)cc1 | 4-(methoxymethyl)benzoic acid | 90 | OCHEM |
| CC(C)OC(=O)C(C(=O)OC(C)C)=C1SC=CS1 | Malotilate | 60.5 | OCHEM |
| Cc1ccc(NC(=O)C(C)C)cc1N | N-(3-Amino-4-methylphenyl)-2-methylpropanamide | 161 | OCHEM |
| Cc1ccc(OC(C)C(=O)O)cc1 (stereo unspecified) | 2-(4-methylphenoxy)propanoic acid | 102 | OCHEM |
| CNc1nc(C)cc(C)c1C#N | 4,6-dimethyl-2-(methylamino)nicotinonitrile | 148 | OCHEM |
| COc1ccccc1-c1n[nH]c(=S)o1 | 5-(2-methoxyphenyl)-1,3,4-oxadiazole-2-thiol | 244 | OCHEM |

Extract of 5 entries:

| SMILES | name | MP (°C) | via |
|---|---|---|---|
| CC(C)(C)N(NC(=O)c1ccccc1)C(=O)c1c(F)cccc1F | – | 194 | OCHEM |
| O=C(O)CCC(=O)c1ccc2c(c1)CCCC2 | 5,6,7,8-Tetrahydro-gamma-oxonaphthalene-2-butyric acid | 123 | OCHEM |
| NNc1ncccc1C(F)(F)F | 2-Hydrazinyl-3-(trifluoromethyl)pyridine | 72 | OCHEM |
| Cc1nn(C2CCS(=O)(=O)C2)c(C)c1C=O (stereo unspecified) | – | 123 | OCHEM |
| O=c1[nH]nc(Br)c(=O)[nH]1 | – | 189 | OCHEM |